Earlier results, collected in patent US20230256051A1, “MODIFIED KISSPEPTIN RECEPTOR AGONISTS FOR FATTY LIVER DISEASE” (priority 2020, published 2023).

Amino acid sequences for entries named in this document (tags omitted).
UniProt Q969F8, whole entry, species assumed: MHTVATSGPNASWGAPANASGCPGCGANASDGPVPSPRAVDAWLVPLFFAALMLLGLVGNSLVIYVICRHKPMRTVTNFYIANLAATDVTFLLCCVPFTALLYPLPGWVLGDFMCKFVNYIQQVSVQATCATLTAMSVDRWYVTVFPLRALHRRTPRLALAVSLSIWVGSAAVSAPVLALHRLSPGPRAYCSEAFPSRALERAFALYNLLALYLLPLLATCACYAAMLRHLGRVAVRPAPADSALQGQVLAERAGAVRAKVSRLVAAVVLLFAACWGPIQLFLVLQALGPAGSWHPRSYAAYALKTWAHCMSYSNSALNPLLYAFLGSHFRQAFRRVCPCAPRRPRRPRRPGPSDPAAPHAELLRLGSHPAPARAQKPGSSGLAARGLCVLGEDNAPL

Biological target: KISS1R (Homo sapiens, UniProt Q969F8)
Parameters: expressed in transfected cells; host or cells: CHO (CHO-KISS1R), membrane preparations
Details: CHO-KISS1R membrane preparations; means +/- SE; n = 3-5; read-out: IC50 against [125I]KP-54 binding to KISS1R; cited from earlier work

Substance	IC50 [nM]
YNWNSFGLR[dF]-NH2 [ANA21]	447 ± 173
[dY]NWNSFGLRF-NH2 [ANA19]	3.6 ± 0.3
YNWNS [dF]GLRF-NH2 [ANA20]	253 ± 144
